For experiment [1], the target named is T1, cyclin D1-Cdk4 (Homo sapiens, UniProt P11802+P24385).
T1 construct: made in house; host or cells: Sf9 insect cells, baculovirus co-infection; unpurified lysate
Description: Cyclin D1-Cdk4 GST-Rb phosphorylation assay (Sf9 insect cell lysate). The class given is biochemical. On the procedure: “x” indicates no addition of peptide.
Cyclins and CDKs—Cdk4 and cyclin D1, Cdk2 and cyclin E and Cdc2 and cyclin B were co-expressed in Sf9 insect cells infected with the appropriate baculovirus constructs. The cells were harvested two days after infection by low speed centrifugation and the pellet was lysed in an equal volume of 10 mM Hepes, pH 7.4 containing: 10 mM NaCl, 1 mM EDTA, and 0.1 mM phenylmethane sulphonyl fluoride, 2 mM DTT and centrifuged at 14000×g for 15 min. The supernatant was removed, aliquoted and immediately frozen in liquid nitrogen. Thawed lysate was used only once and was never refrozen. Labelled Cdk4 and cyclin D1 were produced by translation in the presence of [^35S] methionine using a rabbit reticulocyte lysate in vitro translation kit (Promega).
Phosphorylation of GST-Rb—Cdk4 activity was measured using the cyclin D1-Cdk4 containing insect cell lysate described above. Extract (1 μl) was added to a final reaction volume of 10 μl, containing: 50 mM Hepes, pH 7.4, 10 mM MgCl2, 2.5 mM EGTA, 1 mM DTT, 10 mM β-glycerophosphate, 1 mM NaF, 10 mM PKI, 50 μM ATP containing [^32P] ATP (1000 cpm/pMol) and 0.5 μg GST-Rb. […] The samples were analysed by SDS-PAGE on 12% gels followed by auto-radiography and quantification using a Bio-Imager.

By UniProt entry, the sequences of proteins in these tests, tags left out.
UniProt P11802, whole entry, chain 1 of 2: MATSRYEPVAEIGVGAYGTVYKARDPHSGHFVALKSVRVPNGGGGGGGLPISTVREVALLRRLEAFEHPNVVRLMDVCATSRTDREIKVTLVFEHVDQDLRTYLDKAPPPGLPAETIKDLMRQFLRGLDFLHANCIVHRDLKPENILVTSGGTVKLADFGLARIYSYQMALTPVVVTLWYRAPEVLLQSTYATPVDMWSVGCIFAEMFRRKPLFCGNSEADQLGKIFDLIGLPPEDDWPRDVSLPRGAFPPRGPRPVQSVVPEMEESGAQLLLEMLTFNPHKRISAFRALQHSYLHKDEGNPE
UniProt P24385, whole entry: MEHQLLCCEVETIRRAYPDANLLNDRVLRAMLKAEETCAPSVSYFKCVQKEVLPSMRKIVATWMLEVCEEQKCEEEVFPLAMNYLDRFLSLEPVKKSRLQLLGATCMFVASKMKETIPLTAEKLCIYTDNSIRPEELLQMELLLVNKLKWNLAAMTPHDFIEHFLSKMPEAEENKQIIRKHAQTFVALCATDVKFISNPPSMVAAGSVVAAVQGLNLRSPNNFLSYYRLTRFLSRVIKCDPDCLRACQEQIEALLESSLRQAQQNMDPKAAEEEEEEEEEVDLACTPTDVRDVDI
UniProt P12004, whole entry, species assumed: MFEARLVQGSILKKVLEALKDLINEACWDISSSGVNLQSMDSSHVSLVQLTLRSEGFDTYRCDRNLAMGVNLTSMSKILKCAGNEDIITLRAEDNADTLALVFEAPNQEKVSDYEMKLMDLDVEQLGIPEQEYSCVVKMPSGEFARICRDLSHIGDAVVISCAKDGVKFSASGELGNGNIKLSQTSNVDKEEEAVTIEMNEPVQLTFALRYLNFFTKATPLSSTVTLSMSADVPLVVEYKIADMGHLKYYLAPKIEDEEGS

For experiment [2], the target named is T2, cyclin D1 (Homo sapiens, UniProt P24385).
T2 construct: host or cells: rabbit reticulocyte lysate, in vitro translation
Kind of experiment: Peptide precipitation assay with 35S-labelled cyclin D1. Type of experiment: binding. Particulars: biotinylated peptide on streptavidin-agarose beads, reticulocyte lysate.

For experiment [3], the target named is T3, Cdk4 (Homo sapiens, UniProt P11802).
T3 construct: host or cells: rabbit reticulocyte lysate, in vitro translation
Description: Peptide precipitation assay with 35S-labelled Cdk4. The class given is binding. The conditions noted are these: biotinylated peptide on streptavidin-agarose beads, reticulocyte lysate.

The subject of experiment [4] is Cdk4 and/or cyclin D1. Description: Peptide precipitation assay in the presence of full length his-p21WAF1 (competition). Type of experiment: binding, human. Particulars: 0, 0.5, 2 μg of p21WAF1.
Experiment [5] has as its target PCNA (Homo sapiens, UniProt P12004). The conditions noted are these: Warbrick et al. 1995; Ball and Lane 1996; cited from earlier work.
In experiment [6] the target is cyclin D1-Cdk4 complex co-expressed in Sf9 insect cells (lysate) (UniProt P11802 1-303; P24385 1-295). Kind of experiment: cell-based or functional assay.

“Also recorded” adds a separate entry of the source.

As for `CC[C@H](C)[C@H](NC(=O)[C@H](CC(C)C)NC(=O)[C@H](CCCNC(=N)N)NC(=O)[C@H](CCCNC(=N)N)NC(=O)[C@H](CCCCN)NC(=O)[C@H](CO)NC(=O)[C@H](Cc1c[nH]cn1)NC(=O)[C@H](Cc1ccc(O)cc1)NC(=O)[C@H](Cc1ccccc1)NC(=O)[C@H](C)NC(=O)[C@@H](NC(=O)[C@H](CCSC)NC(=O)[C@H](CO)NC(=O)[C@@H](NC(=O)[C@H](CCC(N)=O)NC(=O)[C@H](CCCNC(=N)N)NC(=O)[C@H](CCCNC(=N)N)NC(=O)[C@@H](N)CCCCN)[C@@H](C)O)[C@@H](C)O)C(=O)N[C@@H](Cc1ccccc1)C(=O)N[C@@H](CO)C(=O)O` [D to A mutant peptide 10], the “fold lower activity than full length p21WAF1 protein” value in experiment [1] (versus full length p21WAF1) is listed as 3.5 fold. Besides, the “fold more active than p16INK4-based peptide as Cdk4 inhibitor” value in experiment [1] (versus p16INK4-based peptide) is on record as “approximately 350 fold”. Moreover, the “binding to cyclin D1” value in experiment [2] is reported as “does not appear to increase the affinity of the peptide for either Cdk4 or cyclin D1”. In addition, in experiment [3], the “binding to Cdk4” value was “does not appear to increase the affinity of the peptide for either Cdk4 or cyclin D1”.

For the molecule `CC(C)C[C@H](NC(=O)[C@H](CCCNC(=N)N)NC(=O)[C@H](CCCNC(=N)N)NC(=O)[C@H](CS)NC(=O)[C@H](C)NC(=O)[C@@H](N)CCCCN)C(=O)N[C@@H](Cc1ccccc1)C(=O)NCC(=O)N1CCC[C@H]1C(=O)N[C@H](C(=O)N[C@@H](CC(=O)O)C(=O)N[C@@H](CO)C(=O)N[C@@H](CCC(=O)O)C(=O)N[C@@H](CCC(N)=O)C(=O)N[C@@H](CC(C)C)C(=O)N[C@@H](CO)C(=O)N[C@@H](CCCNC(=N)N)C(=O)N[C@@H](CC(=O)O)C(=O)N[C@@H](CS)C(=O)N[C@@H](CC(=O)O)C(=O)O)C(C)C` [peptide 2], the “effect of p21WAF1 protein on peptide binding to cyclin D1 and Cdk4” value in experiment [4] is “prevents binding of both peptide 2 and peptide 10”. In addition, the “binding to cyclin D1” value in experiment [2] is “capable of binding to cyclin D1; also recorded: forms a stable complex with cyclin D1; also recorded: binds to cyclin D1”. Besides, in experiment [3], the “binding to Cdk4” value is “not to Cdk4”.

Regarding “Peptide-I: peptide 10 with M to A at position 7 synthesised onto Antennapedia carrier peptide, SEQ ID NO:24 (KRRQTSATDFYHSKRRLIFSRQIKIWFQNRRMKWKK)”, the “binding to PCNA” value in experiment [5] is recorded as “abolishing its activity as a PCNA binding peptide”.

Turning to “R-A mutant: peptide 10 with R-A at residue 15, equivalent to residue 155 of the full length protein (KRRQTSMTDFYHSKARLIFSSGSG)”, the “binding to cyclin D1” value in experiment [2] was “partially retained its ability to bind both Cdk4 and cyclin D1”. In addition, the “binding to Cdk4” value in experiment [3] is “partially retained its ability to bind both Cdk4 and cyclin D1”.

Turning to “peptide 4: residues 46-65 of p21WAF1, SEQ ID NO:4, Biotin-SGSG spacer (RERWNFDFVTETPLEGDFAW; N-terminal biotin-SGSG spacer)”, the “binding to cyclin D1” value in experiment [2] is on record as “not to cyclin D1”. For the same molecule, in experiment [3], the “binding to Cdk4” value is on record as “bound specifically to Cdk4; also recorded: high affinity for Cdk4; also recorded: capable of binding to Cdk4 to form a stable complex; also recorded: forms a stable complex with Cdk4”.

In the case of “peptide 11: extreme C-terminal peptide of p21WAF1, SEQ ID NO:11 (TSMTDFYHSKRRLIFSKRKP)”, in experiment [5], the “binding to PCNA” value was “not to PCNA; also recorded: cannot bind PCNA”. Besides, the “binding to cyclin D1” value in experiment [2] was “could form stable complexes with both Cdk4 and cyclin D1”. In addition, the “binding to Cdk4” value in experiment [3] was “could form stable complexes with both Cdk4 and cyclin D1”.

With KRRQTSMTAFYHSKRRLIFSSGSG (Biotin-SGSG spacer at the C-terminus; free N-terminus) [peptide 10 mutant with D-A at position 9 of peptide 10 or 149 of the full length protein], in experiment [6], the “fold activity as a Cdk4 inhibitory compound against the p16INK4-based peptide” value was approximately 350 fold and the “fold specific activity as a kinase inhibitor against full length p21^WAF1” value was 3.5 fold.

The record behind these values is patent US6962792B1, “Methods and means for inhibition of Cdk4 activity” (Cyclacel Limited, priority 1996, dated 2005).
